Reference: patent US20020081661A1 (Synaptic Pharmaceutical Corporation, priority 1992, published 2002)

By UniProt entry, the sequences of proteins in these tests, tags left out. Residues count along the entry.
UniProt Q62758, 1-387 isoform Q62758-2: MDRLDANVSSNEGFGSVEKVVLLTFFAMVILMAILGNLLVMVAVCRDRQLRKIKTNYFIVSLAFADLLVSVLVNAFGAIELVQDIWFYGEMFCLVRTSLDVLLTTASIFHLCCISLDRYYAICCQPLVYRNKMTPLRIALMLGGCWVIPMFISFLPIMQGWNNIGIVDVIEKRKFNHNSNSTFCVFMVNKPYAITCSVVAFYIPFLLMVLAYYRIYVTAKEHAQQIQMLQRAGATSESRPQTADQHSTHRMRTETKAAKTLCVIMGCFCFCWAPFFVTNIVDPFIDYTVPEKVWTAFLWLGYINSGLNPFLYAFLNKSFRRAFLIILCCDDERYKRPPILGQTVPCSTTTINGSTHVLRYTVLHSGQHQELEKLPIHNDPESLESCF

What was measured:
[1] = target: T1, rat 5-HT4 (CG-7) receptor (Rattus norvegicus, UniProt Q62758); test: cAMP formation in intact Cos-7 cells transiently expressing CG-7; assay type: cell-based; details: CG-7, stimulation of basal cAMP release; means ± S.E.M. of three experiments
T1 construct: two individual full length cDNA clones, S10-87 and S10-95, were isolated; expressed in transfected cells; host or cells: COS-7 (transient, DEAE-dextran)
Description: (§1) Measurement of cAMP Formation: The transiently transfected Cos-7 cells were incubated in Dulbecco's modified Eagle's medium, 5 mM theophylline, 10 mM Hepes (4-[2-Hydroxyethyl]-1-piperazineethanesulfonic acid), 10 μM pargyline, and/or appropriate concentrations of antagonists for 20 minutes at 37° C., 5% CO2. […] The media was aspirated and the reaction stopped by the addition of 100 mM HCl. The plates were stored at 4° C. for 15 minutes, centrifuged for 5 minutes, 500×g to pellet cellular debris, and the supernatant aliquotted and stored at −20° C. prior to assessment of cAMP formation by radioimmunoassay (cAMP Radioimmunoassay kit, Advanced Magnetics, Cambridge, Mass.). Radioactivity was quantitated using a Packard COBRA Auto Gamma Counter equipped with data reduction software. Functional data was fitted to a four parameter logistic equation to obtain response parameters (EC50, Emax, nH; Inplot, GraphPad, San Diego, Calif.).

[2] = target: T2, rat 5-HT4 (CG-8) receptor (Rattus norvegicus, UniProt Q62758); test: cAMP formation in intact Cos-7 cells transiently expressing CG-8; assay type: cell-based; details: CG-8, stimulation of basal cAMP release; means ± S.E.M. of three experiments
T2 construct: two individual full length cDNA clones, S10-87 and S10-95, were isolated; expressed in transfected cells; host or cells: COS-7 (transient, DEAE-dextran)
Description: as §1

[3] = target: T3, rat 5-HT4 receptor S10-95 (CG-8) (Rattus norvegicus, UniProt Q62758); test: biochemical
[4] = target: T4, rat 5-HT4 receptor S10-87 (CG-7) (Rattus norvegicus, UniProt Q62758); test: [3H]5-HT radioligand binding (saturation and displacement), membranes of Cos-7 cells transiently expressing rat S10-87 (CG-7)
[5] = target: T4, rat 5-HT4 receptor S10-87 (CG-7); test: [3H]GR113808 binding (saturation and displacement), COS-7 membranes, rat clone CG-7; parameters: two individual full length cDNA clones, S10-87 and S10-95, were isolated; expressed in transfected cells; host or cells: COS-7 (transient, DEAE-dextran)
[6] = target: T3, rat 5-HT4 receptor S10-95 (CG-8); test: [3H]GR113808 binding (saturation and displacement), COS-7 membranes, rat clone CG-8; parameters: two individual full length cDNA clones, S10-87 and S10-95, were isolated; expressed in transfected cells; host or cells: COS-7 (transient, DEAE-dextran)

SMILES	EC50 [1] [nM]	EC50 [2] [nM]	Ki [3] [nM]	Ki [4] [nM]	Ki ([4]; K1 (nM), CG-7, binding data using [3H]5-HT, Table 4) [nM]	Ki ([5]; CG-7, 0.2-0.4 nM [3H]GR113808, single experiment, read-out: Affinity estimate K1) [nM]	Ki ([5]; CG-7, [3H]GR113808, read-out: KH (affinity for the high affinity state)) [nM]	Ki ([5]; CG-7, [3H]GR113808, read-out: KL (affinity for the low affinity state)) [nM]	Ki ([6]; Affinity estimate K1, CG-8, 0.2-0.4 nM [3H]GR113808, single experiment) [nM]	Ki ([6]; KH (affinity for the high affinity state), CG-8, [3H]GR113808) [nM]	Ki ([6]; read-out: KL (affinity for the low affinity state), CG-8, [3H]GR113808) [nM]	Kd [4] [nM]
NCCc1c[nH]c2ccc(O)cc12 [5-HT, serotonin]	26 ± 3	51 ± 7	6.4 ± 0.5	8.6 ± 0.6	8.6 ± 0.6	237	2.6	357	116	2.5	197	
NCCc1c[nH]c2ccc(O)cc12 [[^3H]5-HT]												7.87 ± 0.06
